Reference: patent publication US20260275055A1, “METHOD FOR PREPARING AN AQUEOUS DISPERSION OF BIOCIDE-FREE ORGANIC OPACIFYING PIGMENT PARTICLES” (priority 2022, published 2026)

System: standard pool of bacteria, yeasts, and molds obtained from American Type Culture Collection (ATCC) that are common contaminants in coatings

## OO [Example H2O2, hydrogen peroxide]
  effectiveness in all heat-aged challenge tests: effective

## CC(C)(C)OO [i-BHP, t-butyl hydroperoxide]
  ability to act as a preservative: insufficient to act as a preservative
  effectiveness as preservative for the aqueous dispersion of opaque polymers: effective
